Data: patent US20220064138A1, “MACROLIDE BREFELDIN A ESTER DERIVATIVES AND USE THEREOF” (OCEAN UNIVERSITY OF CHINA, priority 2019, published 2022)
Converted amounts (≈) assume the structure as drawn.

Assay: physchem
Conditions: 37° C., x ± s, n = 3

Work on C[C@H]1CCC/C=C/[C@@H]2C[C@H](O)C[C@H]2[C@H](OC(=O)/C=C/c2cccnc2)/C=C/C(=O)O1 [Compound 16b] yielded a solubility at 24 h (5% DMSO + 95% H2O) of 0.73 ± 0.13 mg/mL and a solubility at 24 h (Acetone) of 30.3 ± 0.52 mg/mL (≈ 73.6 mM).
